We go through one compound from patent publication US4469786A (priority 1981, dated 1984).

Data set [1] deals with DNA. As to conditions: known mutagenic properties; cited from earlier work.
The test system of data set [2] is single-stranded .phi.105 DNA. The experiment in a line: marker rescue mutagenesis assay, single-stranded DNA. The settings on record: 100 mM MNNG, 42° C., 0-10 minutes.

Regarding `CN(N=O)C(=N)N[N+](=O)[O-]`, the “lesion in DNA / reactivity with DNA” value in data set [1] is on record as “mutagenic potency has been related to its capacity to alkylate oxygens in nucleic acids”. For the same compound, in data set [2], the marker rescue activity result is given as “no significant decrease in marker rescue activity”. The “significance (p) of increase in frequency of clear PFU” value in data set [2] (FIG. 3) is under 0.001. Besides, in data set [2] (DMF buffer pH 6.1, FIG. 3), the induction of mutations result is listed as “Mutations were induced”.
